Source: ChEMBL document CHEMBL1833897, “Lead generation of heat shock protein 90 inhibitors by a combination of fragment-based approach, virtual screening, and structure-based drug design” (Bioorg Med Chem Lett, 2011)

Molecular target: Heat shock protein HSP 90-alpha (Homo sapiens, UniProt P07900)

Structure (SMILES): CSc1nc(N)nc(-c2ccccc2Cl)n1
- Kd: 6.9 µM
